The chains behind the UniProt entries cited, without tags or fusion partners.
UniProt P08913, whole entry: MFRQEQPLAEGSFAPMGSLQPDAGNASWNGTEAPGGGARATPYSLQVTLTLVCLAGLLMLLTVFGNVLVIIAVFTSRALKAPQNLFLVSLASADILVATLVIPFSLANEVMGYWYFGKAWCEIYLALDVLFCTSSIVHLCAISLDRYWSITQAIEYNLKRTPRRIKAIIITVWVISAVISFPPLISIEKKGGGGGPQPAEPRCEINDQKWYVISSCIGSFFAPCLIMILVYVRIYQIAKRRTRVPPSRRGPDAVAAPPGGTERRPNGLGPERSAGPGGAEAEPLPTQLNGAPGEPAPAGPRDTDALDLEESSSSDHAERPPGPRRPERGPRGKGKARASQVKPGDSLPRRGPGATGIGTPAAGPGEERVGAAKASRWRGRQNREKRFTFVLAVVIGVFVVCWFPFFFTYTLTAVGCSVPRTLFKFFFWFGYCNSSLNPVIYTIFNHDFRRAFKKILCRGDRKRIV

According to patent publication US7169786B2, “Isoxazoline derivatives as anti-depressants” (priority 2001, dated 2007):

Target: T1, hα2A receptor (Homo sapiens, UniProt P08913)
T1 construct: expressed in transfected cells
Experiment: Radioligand binding experiment for hα2A receptor ([3H]-raulwolscine)
Protocol: The interaction of the compounds of Formula (I) with hα2-receptors and h5-HT-transporters was assessed in in vitro radioligand binding experiments. In general, a low concentration of a radioligand with a high binding affinity for a particular receptor or transporter is incubated with a sample of a tissue preparation enriched in a particular receptor or transporter or with a preparation of cells expressing cloned human receptors in a buffered medium. During the incubation, the radioligand binds to the receptor or transporter. When equilibrium of binding is reached, the receptor bound radioactivity is separated from the non-bound radioactivity, and the receptor- or transporter-bound activity is counted. The interaction of the test compounds with the receptor is assessed in competition binding experiments. Various concentrations of the test compound are added to the incubation mixture containing the receptor- or transporter preparation and the radioligand. The test compound in proportion to its binding affinity and its concentration inhibits binding of the radioligand. The radioligand used for hα2A, hα2B and hα2C receptor binding was [^3H]-raulwolscine and for the h5-HT transporter was [^3H]paroxetine.
CHO cells, stabile transfected with human adrenergic-α2A-, -α2B or α2C receptor cDNA, were cultured in Dulbecco's Modified Eagle's Medium (DMEM)/Nutrient mixture Ham's F12 (ratio 1:1)(Gibco, Gent-Belgium) supplemented with 10% heat inactivated fetal calf serum (Life Technologies, Merelbeke-Belgium) and antibiotics (100 IU/ml penicillin G, 100 μg/ml streptomycin sulphate, 110 μg/ml pyruvic acid and 100 μg/ml L-glutamine). One day before collection, cells were induced with 5 mM sodiumbutyrate. Upon 80–90% of confluence, cells were scraped in phosphate buffered saline without Ca^2+ and Mg^2+ and collected by centrifugation at 1500×g for 10 min. The cells were homogenised in Tris-HCl 50 mM using an Ultraturrax homogenizer and centrifuged for 10 min at 23,500×g. The pellet was washed once by resuspension and rehomogenization and the final pellet was resuspended in Tris-HCl, divided in 1 ml aliquots and stored at −70° C.
Membranes were thawed and re-homogenized in incubation buffer (glycylglycine 25 mM, pH 8.0). […] Filters were rinsed extensively with ice-cold rinsing buffer (Tris-HCl 50 mM pH 7.4). Filter-bound radioactivity was determined by scintillation counting in a Topcount (Packard, Meriden, Conn.) and results were expressed as counts per minute (cpm). Non-specific binding was determined in the presence of 1 μM oxymetazoline for hα2A- and hα2B receptors and 1 μM spiroxatrine for hα2C receptors.
Data from assays in the presence of compound were calculated as a percentage of total binding measured in the absence of test compound. Inhibition curves, plotting percent of total binding versus the log value of the concentration of the test compound, were automatically generated, and sigmoidal inhibition curves were fitted using non-linear regression. The pIC50 values of test compounds were derived from individual curves.

[1] = read-out: hα2A pIC50 (converted)
[2] = hα2A pIC50, membranes of CHO cells expressing human α2A receptor, [3H]raulwolscine 1 nM

SMILES	IC50 [1] [nM]	further results
COc1cc2c(cc1OC)C1=NOC(CN3CCN(Cc4ccc5ccccc5c4)CC3)C1CO2 (single isomer, unassigned) [Compound 16]	5.37	
COc1ccc2c(c1)OCC1C2=NOC1CN1CCN(CC=Cc2ccccc2)CC1 (centres unmarked) [Compound 217]	1.66	
COc1cc2c(cc1OC)C1=NOC(CN3CCN(C/C(C)=C/c4ccccc4)CC3)C1CO2 (single isomer, unassigned) [Compound 129]		IC50 (membranes of CHO cells expressing human α2A receptor, [3H]raulwolscine 1 nM, read-out: hα2A pIC50 (converted)): 12.3 nM
COc1cc2c(cc1OC)C1=NOC(CN3CCN(C/C=C(\C)c4ccccc4)CC3)C1CO2 (single isomer, unassigned) [Compound 320]	5.89	
CCNC(=O)Oc1cc2c(cc1OC)C1=NOC(CN3CCN(C/C(C)=C/c4ccccc4)CC3)C1CO2 (single isomer, unassigned) [Compound 340]		IC50 [2]: 1 nM
COc1cc2c(cc1OC)C1=NOC(CN3CCN(C/C=C/c4ccccc4)CC3)C1CO2 (single isomer, unassigned) [Compound 8]	4.57	
CCNC(=O)Oc1ccc2c(c1)OCC1C2=NOC1CN1CCN(CC(C)=Cc2ccccc2)CC1 (centres unmarked) [Compound 238]		IC50 [2]: 2.75 nM
COc1cc2c(cc1OC)C1=NOC(CN3CCN(C/C=C/c4ccccc4)CC3)C1CO2 (single isomer, unassigned) [Compound 1]	6.31	

Where two headings read alike, the source gives them in different places.
